## AlphaSeq binding of Ab-14 light chain variants to a spike HR2 peptide

Source: Li et al. 2023 (doi:10.1038/s41467-023-39022-2), MIT Lincoln Laboratory and A-Alpha Bio; data file from the FLAb repository.

The target is the same throughout: PDVDLGDISGINAS, from the HR2 region of SARS-CoV-2 spike.

Ab-14 is the parent antibody, in scFv form: VH, then three GGGGS repeats, then VL. The heavy chain is unchanged in all variants.
VH: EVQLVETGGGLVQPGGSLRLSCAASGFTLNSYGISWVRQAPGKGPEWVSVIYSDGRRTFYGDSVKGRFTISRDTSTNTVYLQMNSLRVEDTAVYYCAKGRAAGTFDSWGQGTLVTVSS
VL: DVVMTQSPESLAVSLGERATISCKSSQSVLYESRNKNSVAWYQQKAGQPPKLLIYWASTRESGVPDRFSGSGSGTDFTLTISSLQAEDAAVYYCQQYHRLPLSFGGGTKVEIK

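The starting antibody came from a phage panning campaign against this peptide. The variants were designed computationally from a first round of random CDR variants and then made and measured. Group labels follow the data file (Ctrl: baseline library sampled from a position-specific scoring matrix, with some repeated check sequences; GP: Gaussian process model; GPLM: also part of the Gaussian process libraries; HC: hill climbing; Gen: genetic algorithm; a sequence that several methods proposed may carry one label only). AlphaSeq pools MATa yeast showing the antibodies with MATalpha yeast showing the peptide. Pairs that bind mate more often; barcode pairs of the diploids are counted by sequencing. Scores were corrected for input abundance and mapped to Kd with protein pairs of known affinity run in the same pool. The assay was run in six technical replicates.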

Each variant is given by its three light chain CDRs, as the data file delimits them; those of the parent are KSSQSVLYESRNKNSVA, WASTRES, QQYHRLPLS. Variants here have at most six changes. Values are log10 of the apparent Kd in nM; lower means stronger binding. The mean shown is taken over the replicates in which the pair was detected. "nd" marks a missing value. The strain was present, yet no cells mated with the target were sequenced in that replicate, which points to weak or no binding. The authors' rule: three or more of the six replicates give a measured affinity, fewer mean a poor binder. The parent sequence was in this pool as ten entries: three were never detected, three once, and four in most replicates, with averages from 0.34 to 2.37. The range of this assay differs from that of the first round, and the authors advise against merging the two. Three control strains display no target. For all light chain designs, 4% of the pairings with them gave a signal, with a median of 2.64 and one signal in twenty below 1.59, so weak values seen in few replicates may be background.

| CDR-L1 | CDR-L2 | CDR-L3 | group | replicates, log10 nM | log10 Kd (nM), mean |
|---|---|---|---|---|---|
| KSSQSVLNNSDNKNSVA | WASTRES | QQYHRLPLS | Ctrl | nd / 2.01 / 2.32 / nd / nd / 2.16 | 2.16 |
| KVSPSQLYESRNKNSVA | QASTRES | QQYHRLPLS | GP_HC | 0.17 / 0.07 / -0.10 / -0.22 / 0.03 / -0.05 | -0.02 |
| KSFQSVLYESRNKNSVA | WASTREW | QQYHRLPLS | Ctrl | nd / nd / nd / nd / nd / nd | nd |
| KQSQSVLYESRNKNSVA | DASTRES | QQYHRLPLM | GP_HC | -0.12 / -0.02 / -0.30 / -0.28 / -0.15 / 0.23 | -0.11 |
| KSLQSTLYESRNKNSVA | HASTRED | QQYHQLPLS | GP_HC | 0.03 / -0.01 / -0.22 / -0.34 / -0.26 / -0.09 | -0.15 |
| KSSQPVLYESRNKQSVA | WALTRES | QQYHRLPLG | Ctrl | nd / nd / nd / nd / nd / nd | nd |
| SFSQSQLYESRTKNSVA | NASTRES | QQYHRLPLS | GP_HC | 0.22 / -0.05 / -0.15 / -0.25 / 0.06 / 0.03 | -0.02 |
| KSSQSVLYTSRNKNSVA | WASTRES | QQYHRLPLS | Ctrl | 2.52 / nd / 2.58 / 2.81 / nd / 2.26 | 2.54 |
| KYSTSDLYESTNKNSVA | WASTRES | QQYHRLPLS | Ctrl | 1.24 / 1.10 / 0.70 / 0.85 / 0.94 / 1.07 | 0.98 |
| KLSQSVLMESRNKNSVA | HASTRLS | QQYHRLPLS | GP_Gen | 0.30 / -0.02 / 0.00 / -0.06 / 0.07 / 0.44 | 0.12 |
| KSWQSVLYESRNKNSVN | WASTRES | QQYHRLPLS | Ctrl | nd / nd / nd / nd / nd / 2.24 | 2.24 |
| KLEQSVEYESRNKNSVA | NASQRES | QQYHRLPLS | GP_Gen | 0.52 / 0.71 / 0.48 / 0.14 / 2.12 / 0.47 | 0.74 |
| KSSQSVLYESRNKNSVA | WASERES | QQYHRLPFS | Ctrl | 1.40 / 1.36 / 1.04 / 1.88 / 1.61 / 0.97 | 1.38 |
| KSSQSVLYESRNQNSVA | WASTRES | QDYHRLPLS | Ctrl | 0.86 / 1.64 / 1.17 / 1.43 / 3.33 / 1.83 | 1.71 |
| KSQQSWLYESRNKNSVA | KGSTRES | QQYHRLPLS | Ctrl | 0.84 / 1.00 / 1.00 / 0.56 / 0.60 / 1.09 | 0.85 |
| KVSESVLYESRNKNSVA | NASTRES | QQYHRLPLS | GP_Gen | 0.06 / -0.14 / -0.20 / -0.27 / -0.25 / -0.02 | -0.14 |
| KLSQSALYESRNKNSVA | GGSTRES | QQYHRLPLS | GP_HC | 0.02 / 0.01 / -0.18 / 0.08 / 0.10 / 0.20 | 0.04 |
| KVSQSVLYESVNKNSVA | DASTRES | QQYHRLPLS | GPLM_HC | 0.09 / -0.22 / -0.11 / -0.47 / -0.08 / -0.01 | -0.13 |
| KVSQSWLYESRNKNSVA | NASQRES | QQYHRLPLS | GP_Gen | -0.09 / -0.16 / -0.28 / -0.38 / -0.25 / -0.17 | -0.22 |
| KDSQKVLYESFNKNSVA | WATTRET | QQYHRLPLS | Ctrl | nd / nd / nd / nd / nd / nd | nd |
| KSSQSVLYMSRNFNSVA | WASTRES | QQYTRLPLS | Ctrl | nd / 0.98 / nd / nd / nd / nd | 0.98 |
| KLPQSQLYESRNKNAVA | NASQRES | QQYHRLPLS | GP_Gen | -0.39 / -0.28 / -0.52 / -0.30 / -0.55 / -0.19 | -0.37 |
| KSSQSVLDENRYKNSVA | AAKTREQ | QQYHRLPLS | Ctrl | nd / nd / nd / nd / nd / nd | nd |
| KSSQSGTYESRWKNSVA | QASTREE | QQYHRLPLS | Ctrl | 0.49 / 0.33 / 0.17 / 0.71 / 0.37 / 0.17 | 0.37 |
| KSSGSVLYESFNYNSVA | WASTRES | QQYHRLPLS | Ctrl | nd / nd / 1.72 / nd / nd / 1.60 | 1.66 |
| KISQLVLYESQNKNSVA | AASTREE | QQYHRLPLS | Ctrl | 0.24 / 0.01 / -0.31 / -0.07 / -0.27 / 0.22 | -0.03 |
| LWSQSVLYESRNKNSVA | WHSTRES | QQYHRLPLS | Ctrl | nd / nd / nd / nd / nd / nd | nd |
| KVSQSVLYEGRNKNSVA | SASTRES | QQYHRLPLS | Ctrl | 0.99 / 1.05 / 0.76 / 0.89 / 1.15 / 1.10 | 0.99 |
| KVSQSVLYENRNKNSVA | DASTRES | QQYHRLPLS | GP_Gen | -0.01 / -0.10 / -0.38 / -0.14 / -0.12 / -0.26 | -0.17 |
| KSSQSILYESRNKNSVA | WASTREM | QQYARLPLS | Ctrl | nd / nd / nd / 3.20 / 2.29 / 2.54 | 2.67 |
| KQSDSVLYESRNKNSVA | DASTRES | QQYHRLPLS | GP_HC | 0.04 / -0.38 / -0.49 / -0.39 / -0.29 / -0.08 | -0.27 |
| KLRQSMNYESRNKNSVA | NASTRES | QIYHRLPLS | GP_HC | 1.96 / nd / nd / 1.17 / 2.01 / 1.86 | 1.75 |

The first 2 entries again:

| CDR-L1 | CDR-L2 | CDR-L3 | group | replicates, log10 nM | log10 Kd (nM), mean |
|---|---|---|---|---|---|
| KSSQSVLNNSDNKNSVA | WASTRES | QQYHRLPLS | Ctrl | nd / 2.01 / 2.32 / nd / nd / 2.16 | 2.16 |
| KVSPSQLYESRNKNSVA | QASTRES | QQYHRLPLS | GP_HC | 0.17 / 0.07 / -0.10 / -0.22 / 0.03 / -0.05 | -0.02 |